Source: patent US20120046329A1, “MODULATORS OF NOD1 AND NOD2 SIGNALING, METHODS OF IDENTIFYING MODULATORS OF NOD1 AND NOD2 SIGNALING, AND USES THEREOF” (Sanford-Burnham Medical Research Institute, priority 2010, published 2012)

How the values were obtained:
NOD1 [1] = target: T1, NOD1 (Homo sapiens, UniProt Q9Y239); experiment: 1D 1H-NMR ligand binding to recombinant NOD1 protein; parameters: made in house; details: 50 μM compound, 5 μM protein
T1 sequence (Q9Y239 1-953): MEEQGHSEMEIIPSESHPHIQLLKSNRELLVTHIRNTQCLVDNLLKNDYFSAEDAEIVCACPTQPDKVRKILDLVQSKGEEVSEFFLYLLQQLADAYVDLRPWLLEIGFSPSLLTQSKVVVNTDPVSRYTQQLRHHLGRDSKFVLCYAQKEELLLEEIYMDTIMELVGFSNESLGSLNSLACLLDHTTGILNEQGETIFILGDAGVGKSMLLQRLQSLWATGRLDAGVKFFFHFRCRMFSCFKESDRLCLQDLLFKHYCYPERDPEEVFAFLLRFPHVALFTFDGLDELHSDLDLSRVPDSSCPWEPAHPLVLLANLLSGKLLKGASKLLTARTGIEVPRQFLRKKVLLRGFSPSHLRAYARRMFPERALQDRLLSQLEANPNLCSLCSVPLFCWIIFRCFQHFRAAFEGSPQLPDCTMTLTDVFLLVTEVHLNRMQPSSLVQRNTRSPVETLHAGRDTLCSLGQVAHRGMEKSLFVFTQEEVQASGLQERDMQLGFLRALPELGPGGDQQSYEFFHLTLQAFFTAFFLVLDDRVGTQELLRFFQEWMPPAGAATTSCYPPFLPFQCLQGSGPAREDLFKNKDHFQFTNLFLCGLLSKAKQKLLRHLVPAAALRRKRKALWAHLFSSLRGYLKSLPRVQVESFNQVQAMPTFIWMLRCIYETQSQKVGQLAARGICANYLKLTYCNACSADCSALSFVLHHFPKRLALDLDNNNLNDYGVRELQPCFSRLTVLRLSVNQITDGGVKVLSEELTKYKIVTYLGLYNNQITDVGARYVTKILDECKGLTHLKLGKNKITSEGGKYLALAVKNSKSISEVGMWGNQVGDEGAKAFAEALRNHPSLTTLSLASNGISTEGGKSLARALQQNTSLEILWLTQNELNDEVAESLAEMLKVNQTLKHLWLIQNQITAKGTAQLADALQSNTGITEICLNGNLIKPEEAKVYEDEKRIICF

NOD1 [2] = target: T1, NOD1; experiment: NF-κB luciferase in 697 pre-B leukemia cells, γ-tri-DAP; details: 697 cells, 10 μM
NOD1 [3] = target: T1, NOD1; experiment: Fluorescence polarization assay, FITC-ATP binding to recombinant NOD1; parameters: endogenous in cells; host or cells: HEK293T with integrated NF-κB-luciferase or ISRE-luciferase reporter; details: 10 nM FITC-ATP
NOD1 [4] = target: T1, NOD1; experiment: Primary monocyte-derived dendritic cells activated with γ-tri-DAP; details: 15 μM
NOD1 [5] = target: T1, NOD1; experiment: ISRE-driven luciferase reporter in HEK293T, γ-tri-DAP; type: cell-based; parameters: endogenous in cells; host or cells: HEK293T with integrated NF-κB-luciferase or ISRE-luciferase reporter; details: 5 μM
NOD1 [6] = target: T1, NOD1; experiment: NF-κB SEAP reporter in PMA-differentiated THP.1 macrophages, γ-tri-DAP; type: cell-based; parameters: endogenous in cells; host or cells: HEK293T with integrated NF-κB-luciferase or ISRE-luciferase reporter; details: 5 μM, 24 h
NOD1 [7] = target: T1, NOD1; experiment: Subcellular fractionation of MCF-7 cells expressing tagged NOD1; details: MCF-7, 5 μM, 24 hr
NOD1 [8] = target: T1, NOD1; experiment: γ-tri-DAP-induced IL-8 secretion ELISA in MCF-7/NOD1 cells; details: MCF-7 cells, listed as probe

Cc1ccc(S(=O)(=O)n2c(N)nc3ccccc32)cc1 [Compound 1]
Binding to NOD1 protein by 1D 1H-NMR signal suppression (NOD1 [1]): direct interaction | Effect on NF-κB activity induced by γ-tri-DAP (NOD1 [2]): is inhibited | Interference with ATP binding to recombinant NOD1 protein (NOD1 [3]): did not interfere | Cytotoxicity in dendritic cells (NOD1 [4]): without causing cytoxicity | Expression of IL-1β, IL-6 and TNF-α elicited by γ-tri-DAP (NOD1 [4]; dendritic cells, 4 hr, mRNA): inhibited | Cell surface expression of CD83, CD86 and HLA-DR elicited by γ-tri-DAP (NOD1 [4]; dendritic cells, 24 hr): reduced | Effect on ISRE-driven reporter gene activity induced by γ-tri-DAP (NOD1 [5]): suppressed | Effect on NF-κB-inducible SEAP activity induced by γ-tri-DAP (NOD1 [6]): inhibition by compound 1 was highly reproducible | Membrane localization of RIP2 (NOD1 [7]): reduced | NOD1 protein in the membrane fraction (NOD1 [7]): induced enrichment | Inhibition of NOD1 (γ-tri-DAP) dependent IL-8 secretion (in words) (NOD1 [8]): Dose dependent inhibition
